Reference: patent US20170273985A1, “TRICYCLIC DERIVATIVE” (Sunovion Pharmaceuticals Inc., priority 2014, published 2017)

The chains behind the UniProt entries cited, without tags or fusion partners.
UniProt Q14123, whole entry: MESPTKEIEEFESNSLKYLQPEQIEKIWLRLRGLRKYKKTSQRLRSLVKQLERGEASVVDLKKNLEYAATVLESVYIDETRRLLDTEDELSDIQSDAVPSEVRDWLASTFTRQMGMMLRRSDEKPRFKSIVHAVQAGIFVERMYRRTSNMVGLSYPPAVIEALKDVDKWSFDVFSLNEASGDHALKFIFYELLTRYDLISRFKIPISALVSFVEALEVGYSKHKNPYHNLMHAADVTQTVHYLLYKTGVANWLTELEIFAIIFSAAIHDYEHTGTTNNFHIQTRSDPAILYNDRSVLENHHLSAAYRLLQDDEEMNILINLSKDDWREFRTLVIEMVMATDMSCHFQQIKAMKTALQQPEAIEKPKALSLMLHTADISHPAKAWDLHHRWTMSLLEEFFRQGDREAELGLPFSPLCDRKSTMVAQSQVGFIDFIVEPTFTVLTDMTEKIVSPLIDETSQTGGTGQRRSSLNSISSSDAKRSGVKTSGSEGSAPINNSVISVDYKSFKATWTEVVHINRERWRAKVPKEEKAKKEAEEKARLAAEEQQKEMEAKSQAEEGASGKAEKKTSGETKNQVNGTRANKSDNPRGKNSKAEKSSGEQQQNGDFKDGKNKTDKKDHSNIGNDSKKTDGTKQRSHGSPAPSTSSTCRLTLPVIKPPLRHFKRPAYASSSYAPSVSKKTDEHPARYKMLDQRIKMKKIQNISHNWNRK
UniProt P54750, whole entry: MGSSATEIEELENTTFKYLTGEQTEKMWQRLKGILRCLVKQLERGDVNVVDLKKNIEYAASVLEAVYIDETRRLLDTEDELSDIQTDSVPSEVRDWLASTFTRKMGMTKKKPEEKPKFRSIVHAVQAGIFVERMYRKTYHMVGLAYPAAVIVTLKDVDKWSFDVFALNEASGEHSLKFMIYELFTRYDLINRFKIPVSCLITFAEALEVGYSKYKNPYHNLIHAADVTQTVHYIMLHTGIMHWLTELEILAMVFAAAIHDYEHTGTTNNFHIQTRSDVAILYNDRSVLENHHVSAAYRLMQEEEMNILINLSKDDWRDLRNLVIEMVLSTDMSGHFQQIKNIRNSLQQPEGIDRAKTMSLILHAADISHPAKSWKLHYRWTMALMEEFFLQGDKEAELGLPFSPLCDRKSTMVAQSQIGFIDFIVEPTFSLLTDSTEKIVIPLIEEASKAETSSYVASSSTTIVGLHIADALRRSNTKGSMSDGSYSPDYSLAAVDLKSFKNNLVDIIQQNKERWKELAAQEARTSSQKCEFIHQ
UniProt Q01064, whole entry: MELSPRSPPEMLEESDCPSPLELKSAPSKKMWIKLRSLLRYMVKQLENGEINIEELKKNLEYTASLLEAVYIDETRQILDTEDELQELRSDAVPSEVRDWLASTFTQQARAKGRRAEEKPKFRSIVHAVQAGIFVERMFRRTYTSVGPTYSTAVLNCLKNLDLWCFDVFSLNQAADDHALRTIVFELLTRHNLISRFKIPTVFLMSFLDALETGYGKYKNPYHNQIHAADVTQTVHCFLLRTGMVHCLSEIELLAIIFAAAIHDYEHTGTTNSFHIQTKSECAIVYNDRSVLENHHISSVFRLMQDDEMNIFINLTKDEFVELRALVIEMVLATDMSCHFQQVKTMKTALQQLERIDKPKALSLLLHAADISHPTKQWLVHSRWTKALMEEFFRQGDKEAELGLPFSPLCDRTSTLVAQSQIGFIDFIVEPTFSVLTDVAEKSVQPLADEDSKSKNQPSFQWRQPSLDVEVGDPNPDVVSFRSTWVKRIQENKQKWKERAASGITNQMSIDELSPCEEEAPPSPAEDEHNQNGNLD

The compounds below were run against PDE1C (Homo sapiens, UniProt Q14123) (assay: In vitro HTRF PDE1 inhibition assay (PDE1C)). Settings: Table 24.
Assay type: biochemical
Description: (§1) An exemplary procedure for the in vitro Homogenous Time Resolved Fluorescence assay, which can be used to determine the inhibitory action of compounds of the invention toward PDE1 or its isoforms, follows. The HTRF PDE1 assay utilized the HTRF (Homogenous Time Resolved Fluorescence) technology, which is based on the competition between unlabeled cyclic nucleotide and cyclic nucleotide labeled with XL665 for the binding to cyclic nucleotide-specific antibody labeled with cryptate. The HTRF signal is thus inversely proportional to the concentration of cyclic nucleotide being measured. Since phosphodiesterases break down cyclic nucleotides the HTRF signal was used to determine PDE activity. The Cisbio cGMP HTRF assay kit (Cat no: 62GM2PEC) was utilized. Cyclic GMP was diluted to 200 nM in HTRF assay buffer (1 mM CaCl2, 10 mM MgCl2, 10 mM Tris-HCl, 0.1% BSA, pH 7.4). 10 μl of compound or DMSO was diluted in 200 nM cyclic GMP solution and added to wells of a 96 well white plate to give 100 nM cyclic GMP in 1% DMSO final concentration. PDE (1A3, 1B or IC) was diluted to 2× working concentration in HTRF assay buffer with 2 μg/ml calmodulin, and 10 μl was added to initiate the reaction. The plate was then incubated for 45 minutes at 37° C. d2-Labelled cyclic GMP and anti-cGMP cryptate were diluted in 50 mM phosphate buffer, 0.8 M KF, 1% Triton X100, 0.2% BSA, pH 7.0. Following incubation 10 μl d2-cGMP, then 10 μl anti cGMP cryptate were added to each well and the plate was incubated for 45 minutes at room temperature. The plate was then read on Perkin Elmer Victor at 2 different FRET readings ex/emm 340 nm/665 nm and 340 nm/615 nm. Compounds having an IC50 of <1 μM, are denoted as +++. Compounds having an IC50 of 1−10 μM, are denoted as ++. Compounds having an IC50 of 10-100 μM, are denoted as +.

Row | IC50 | SMILES
1 | < 1000 nM | CC(C)c1ncc2c(=O)n3c(nn12)N(Cc1ccc(C#N)cc1)CC3

Same assay, conditions: Table 27

Row | IC50 | SMILES
2 | < 1000 nM | CO[C@H]1CC[C@H](CN2CCn3c2nn2c(C4CCOCC4)ncc2c3=O)CC1
3 | < 1000 nM | O=c1c2cnc(C3CCOCC3)n2nc2n1CCN2C[C@H]1CC[C@H](C(F)(F)F)CC1
4 | < 1000 nM | CCO[C@H]1CC[C@@H](CN2CCn3c2nn2c(C4CCOCC4)ncc2c3=O)CC1

The compounds below were run against PDE1A3 (Homo sapiens, UniProt P54750) (assay: In vitro HTRF PDE1 inhibition assay (PDE1A3)). Settings: Table 23.
Assay type: biochemical
Description: as §1

Row | IC50 | SMILES
5 | < 1000 nM | CC(C)c1ncc2c(=O)n3c(nn12)N(Cc1ccc(C#N)cc1)CC3

Same assay, conditions: Table 26

Row | IC50 | SMILES
6 | < 1000 nM | CO[C@H]1CC[C@H](CN2CCn3c2nn2c(C4CCOCC4)ncc2c3=O)CC1
7 | < 1000 nM | CCO[C@H]1CC[C@H](CN2CCn3c2nn2c(C4CCOCC4)ncc2c3=O)CC1
8 | < 1000 nM | O=c1c2cnc(C3CCOCC3)n2nc2n1CCN2C[C@H]1CC[C@H](C(F)(F)F)CC1
9 | < 1000 nM | CCO[C@H]1CC[C@@H](CN2CCn3c2nn2c(C4CCOCC4)ncc2c3=O)CC1

The compounds below were run against PDE1B (Homo sapiens, UniProt Q01064) (assay: In vitro HTRF PDE1 inhibition assay (PDE1B)). Settings: Table 22.
Assay type: biochemical
Description: as §1

Row | IC50 | SMILES
10 | < 1000 nM | CC(C)c1ncc2c(=O)n3c(nn12)N(Cc1ccc(C#N)cc1)CC3

Same assay, conditions: Table 25

Row | IC50 | SMILES
11 | < 1000 nM | O=c1c2cnc(C3CCOCC3)n2nc2n1CCN2C[C@H]1CC[C@@H](OC(F)(F)F)CC1
12 | < 1000 nM | CO[C@H]1CC[C@H](CN2CCn3c2nn2c(C4CCOCC4)ncc2c3=O)CC1
13 | < 1000 nM | CO[C@H]1CC[C@@H](CN2CCn3c2nn2c(C4CCOCC4)ncc2c3=O)CC1
14 | < 1000 nM | CCO[C@H]1CC[C@H](CN2CCn3c2nn2c(C4CCOCC4)ncc2c3=O)CC1
15 | < 1000 nM | O=c1c2cnc(C3CCOCC3)n2nc2n1CCN2C[C@H]1CC[C@H](C(F)(F)F)CC1
16 | < 1000 nM | O=c1c2cnc(C3CCOCC3)n2nc2n1CCN2CCCCC(F)(F)F
17 | < 1000 nM | CCO[C@H]1CC[C@@H](CN2CCn3c2nn2c(C4CCOCC4)ncc2c3=O)CC1
18 | < 1000 nM | O=c1c2cnc(C3CCOCC3)n2nc2n1CCN2C[C@H]1CC[C@H](OC(F)(F)F)CC1
19 | < 1000 nM | O=c1c2cnc(C3CCOCC3)n2nc2n1CCN2CC1CCC(OC(F)(F)F)CC1 (stereo not drawn)
20 | < 1000 nM | O=c1c2cnc(C3CCOCC3)n2nc2n1CCN2C[C@H]1CC[C@@H](C(F)(F)F)CC1
21 | < 1000 nM | N#Cc1cccc(CCN2CCn3c2nn2c(C4CCOCC4)ncc2c3=O)c1
